Experimental data published in patent US11306063B2, “Heterocyclic naphthoquinones derivatives for use in the treatment of cancers including Cushing disease” (Commissariat a l'Energie Atomique et aux Energies …, priority 2016, dated 2022).

System: EGFR, P-EGFR, Met, P-Akt in HCC827 cells
Experiment: Protein expression by immunoblot, HCC827
Type: cell-based, human
Details: treatment at 10 μM
Protocol: Tubulin (Tub) serve as loading controls. One representative experiment out of two is presented.
Cells were treated by either DMSO (0.5%) or increasing doses of the selected molecules from 1 μM to 10 μM over 6 to 24 hours as indicated. […] Tubulin was detected using anti α-tubulin primary antibody (in-house: the polyclonal Glu-tubulin antibody (L4) is available commercially from Abcys (Paris, France)). HRP-coupled anti-rabbit (#A6154) and anti-mouse (#A4416) secondary antibodies were purchased from Sigma. HRP activity was detected through HRP chemoluminescence detection reagent (Millipore, #WBLUF0100). […] Positive control was Epotoside at 50 μM or 100 μM, a known drug inducing cancerous cell death by apoptosis.

COc1cc2ncnc(Nc3ccc(F)c(Cl)c3)c2cc1OCCCN1CCOCC1 [Gefitinib, reference compound]
effect on P-EGFR or EGFR levels, HCC827: had no effect
